{
  "source": "ChEMBL document CHEMBL4765383",
  "about": "“Amphiphilic aminoglycosides with increased selectivity for inhibition of connexin 43 (Cx43) hemichannels” (Eur J Med Chem, 2020)",
  "test": "Inhibition of human Cx43 expressed in Escherichia coli LB2003 cells in medium containing 8 mM K+ and 10 uM IPTG by measuring cell growth after 18 hrs by plate reader",
  "data": [
    {"compound": "NC[C@H]1O[C@H](O[C@H]2[C@H](O)[C@@H](O[C@H]3O[C@H](CO)[C@@H](O)[C@H](N)[C@H]3O)[C@H](N)C[C@@H]2N)[C@H](O)[C@@H](O)[C@@H]1O", "note": "[KANAMYCIN]", "values": [
      {"measurement": "IC50", "result": 48, "unit": "µM"}
    ]}
  ]
}
